Results reported in ChEMBL document CHEMBL1149528, “4-Phenyl-4-[1H-imidazol-2-yl]-piperidine derivatives as non-peptidic selective delta-opioid agonists with potential anxiolytic/antidepressant properties. Part 2” (Bioorg Med Chem Lett, 2007).

Amino acid sequences for entries named in this document (tags omitted). A change or cut given only in a name is not applied to a line headed by its entry.
UniProt P41145: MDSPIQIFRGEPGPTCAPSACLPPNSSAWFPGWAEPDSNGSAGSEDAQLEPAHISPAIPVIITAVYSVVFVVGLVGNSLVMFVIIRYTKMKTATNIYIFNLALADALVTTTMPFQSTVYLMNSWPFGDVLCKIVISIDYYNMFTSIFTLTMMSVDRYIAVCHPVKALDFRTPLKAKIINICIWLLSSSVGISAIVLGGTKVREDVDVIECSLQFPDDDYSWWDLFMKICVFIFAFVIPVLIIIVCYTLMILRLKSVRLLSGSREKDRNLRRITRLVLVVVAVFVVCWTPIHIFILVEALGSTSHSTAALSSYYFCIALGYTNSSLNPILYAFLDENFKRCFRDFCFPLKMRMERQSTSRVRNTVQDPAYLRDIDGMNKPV
UniProt P41143, whole entry: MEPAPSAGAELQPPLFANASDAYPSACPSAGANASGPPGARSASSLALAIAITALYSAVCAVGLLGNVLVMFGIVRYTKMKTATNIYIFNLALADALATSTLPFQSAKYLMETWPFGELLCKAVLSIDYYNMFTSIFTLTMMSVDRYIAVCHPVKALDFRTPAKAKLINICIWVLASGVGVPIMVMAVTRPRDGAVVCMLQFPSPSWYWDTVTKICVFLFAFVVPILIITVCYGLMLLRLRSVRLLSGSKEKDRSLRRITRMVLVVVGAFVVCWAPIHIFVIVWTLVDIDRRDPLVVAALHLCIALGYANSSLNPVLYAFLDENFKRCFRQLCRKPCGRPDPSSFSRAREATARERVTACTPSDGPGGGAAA

target: Kappa-type opioid receptor (Homo sapiens, UniProt P41145); test: Displacement of [3H]U-69593 from cloned human kappa opioid receptor

For `CCOC(=O)N1CCC(c2ccccc2)(c2nccn2Cc2ccccc2)CC1`, the Ki was 171 nM.

target: Delta-type opioid receptor (Homo sapiens, UniProt P41143); test: Displacement of [3H]DPDPE from cloned human delta opioid receptor

Point of comparison: `COC(=O)N1CCC(c2ccccc2)(c2nccn2Cc2ccccc2)CC1`, Ki 19 nM. Against it:
- CC(C)(C)OC(=O)N1CCC(c2ccccc2)(c2nccn2Cc2ccccc2)CC1 — 2-fold lower, 9.3 nM
- CC(=O)N1CCC(c2ccccc2)(c2nccn2Cc2ccccc2)CC1 — 1.9-fold higher, 37 nM
- CC(c1ccccc1)n1ccnc1C1(c2ccccc2)CCN(C(=O)c2ccccc2)CC1 (stereo not given) — 8.3-fold lower, 2.3 nM
- O=C(OCc1ccccc1)N1CCC(c2ccccc2)(c2nccn2Cc2ccccc2)CC1 — 1.6-fold lower, 12 nM
- CCOC(=O)N1CCC(c2ccccc2)(c2nccn2Cc2ccccc2)CC1 — 5.1-fold lower, 3.7 nM
- CCCCOC(=O)N1CCC(c2ccccc2)(c2nccn2Cc2ccccc2)CC1 — 2-fold lower, 9.3 nM
- CCC(=O)N1CCC(c2ccccc2)(c2nccn2Cc2ccccc2)CC1 — 1.5-fold higher, 29 nM
- Cc1cc(C)cc(C(=O)N2CCC(c3ccccc3)(c3nccn3Cc3ccccc3)CC2)c1 — 1.9-fold higher, 37 nM
- CCOC(=O)N1CCC(c2ccccc2)(c2nccn2Cc2ccc(OC)cc2)CC1 — 1.6-fold lower, 12 nM
- CC(C)(C)C(=O)N1CCC(c2ccccc2)(c2nccn2Cc2ccccc2)CC1 — 1.9-fold higher, 37 nM
- COCC(=O)N1CCC(c2ccccc2)(c2nccn2Cc2ccc(C(=O)OC)cc2)CC1 — 3.2-fold lower, 5.9 nM
- COCC(=O)N1CCC(c2ccccc2)(c2nccn2Cc2ccccc2)CC1 — 2.6-fold lower, 7.4 nM
- CCOC(=O)N1CCC(c2ccccc2)(c2nccn2Cc2ccc(C(=O)OC)cc2)CC1 — 26-fold lower, 0.74 nM
- CCOC(=O)N1CCC(c2ccccc2)(c2nccn2Cc2cccc(OC)c2)CC1 — 1.5-fold higher, 29 nM
- CCOC(=O)N1CCC(c2ccccc2)(c2nccn2Cc2ccc(O)cc2)CC1 — 4.1-fold lower, 4.6 nM
- O=C(c1ccccc1)N1CCC(c2ccccc2)(c2nccn2Cc2ccccc2)CC1 — 8.3-fold lower, 2.3 nM
- CCOC(=O)N1CCC(c2ccccc2)(c2nccn2Cc2cccc(F)c2)CC1 — 3.2-fold lower, 5.9 nM
- CCOC(=O)N1CCC(c2ccccc2)(c2nccn2C(C)c2ccccc2)CC1 (stereo not given) — 16-fold lower, 1.2 nM
- COCC(=O)N1CCC(c2ccccc2)(c2nccn2C(C)c2ccccc2)CC1 (stereo not given) — 5.1-fold lower, 3.7 nM
- CCCOC(=O)N1CCC(c2ccccc2)(c2nccn2Cc2ccccc2)CC1 — 6.6-fold lower, 2.9 nM
- O=C(Cc1ccccc1)N1CCC(c2ccccc2)(c2nccn2Cc2ccccc2)CC1 — within 1.5-fold, 23 nM
- COC(=O)c1ccc(Cn2ccnc2C2(c3ccccc3)CCN(C(=O)c3ccccc3)CC2)cc1 — 20-fold lower, 0.93 nM
- CC(C)OC(=O)N1CCC(c2ccccc2)(c2nccn2Cc2ccccc2)CC1 — 11-fold lower, 1.8 nM
